# Test results taken from PubChem BioAssay AID493131 (Broad Institute, 2011).
# Amino acid sequences for entries named in this document (tags omitted).
# UniProt P13346, whole entry: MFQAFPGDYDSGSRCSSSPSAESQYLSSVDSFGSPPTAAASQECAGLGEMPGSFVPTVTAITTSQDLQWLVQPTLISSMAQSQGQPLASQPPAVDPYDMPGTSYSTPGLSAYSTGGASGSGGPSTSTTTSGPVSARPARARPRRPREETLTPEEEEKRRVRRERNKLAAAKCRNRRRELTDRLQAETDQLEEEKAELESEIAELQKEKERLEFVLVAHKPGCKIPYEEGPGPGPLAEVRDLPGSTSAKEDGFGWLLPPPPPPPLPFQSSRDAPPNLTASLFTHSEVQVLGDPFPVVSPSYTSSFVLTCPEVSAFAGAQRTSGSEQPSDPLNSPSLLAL
# Only a part is listed here, and it is no random draw. Some tests of the compounds listed are not included; inactive here does not mean inactive elsewhere. Active and inactive are the calls of the source.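 Rule for the calls: active = mean activation above about 17%, with every replicate also reaching it (limit read from the data, passing the limit was not always enough); inconclusive = only one of the two conditions met; inactive = the rest.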
# Molecular target: Protein FosB (Mus musculus) (UniProt P13346)
# Assay: activators of delta FosB homodimer, primary screen, biochemical, fluorescence polarization, TAMRA-CDK5 oligo, single point (AID 493131);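 note: fluorescence polarization rise as delta FosB binds a TAMRA Cdk5 AP-1 oligo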
# Conditions: purified delta FosB, at 25 µM, hits give high values, percent of positive-control signal above neutral wells
row,Compound,activation
1,O=C(OC1CN2CCC1CC2)C(CO)(c1ccccc1)c1ccccc1 (stereo not given),inactive: -1.74%
2,COc1ccc(Br)c(C(=O)NCC2(N3CCCCC3)CCCCC2)c1,inactive: 5.15%
3,CN(C)c1cccc(C(=O)NCC2(N(C)C)CCCCC2)c1,inactive: 4.11%
4,O=C(OCCN1CCCC1)C(O)(c1ccccc1)c1ccccc1,inactive: 5.83%
5,CC(C)Oc1ccc(C(=O)NCC2(N(C)C)CCCCC2)cc1,inactive: 8.74%
6,CN(C)C1(CNC(=O)c2ccc(Br)cc2)CCCCC1,inactive: -1.31%
7,COc1cc(C(=O)NCC2(N(C)C)CCCCC2)c([N+](=O)[O-])cc1OC,inactive: -2.53%
8,COc1ccc(Cl)cc1C(=O)NCC1(N(C)C)CCCCC1,inactive: -3.92%
9,COc1cccc(C(=O)NCC2(N3CCCCC3)CCCCC2)c1,inactive: -2.59%
10,O=C(NCC1(N2CCCCC2)CCCCC1)c1cccc(Cl)c1,inactive: -2.09%
11,CN(C)C1CCCC1OC(=O)C(O)(c1ccccc1)c1ccccc1 (stereo not given),inactive: -7.51%
12,CN(C)c1ccc(C(=O)NCC2(N(C)C)CCCCC2)cc1,inactive: -0.45%
13,Cc1ccccc1C(=O)NCC1(N2CCCCC2)CCCCC1,inactive: 3.4%
14,O=C(NCC1(N2CCCCC2)CCCCC1)c1cc(F)c(F)cc1Cl,inactive: -4.11%
15,C=CCN1CCN(CCOC(=O)C(O)(c2ccccc2)c2ccccc2)CC1,inactive: -3.12%
16,O=C(NCC1(N2CCCCC2)CCCCC1)c1cccc(Br)c1,inactive: -9.94%
17,Cc1cc(C(=O)NCC2(N3CCCCC3)CCCCC2)ccc1[N+](=O)[O-],inactive: -2.88%
18,CCN1CCCC(OC(=O)C2(O)c3ccccc3C=Cc3ccccc32)C1 (stereo not given),inactive: -6.09%
19,COc1ccc(C(=O)NCC2(N(C)C)CCCCC2)cc1,inactive: -5.27%
20,O=C(NCC1(N2CCCCC2)CCCCC1)c1cc([N+](=O)[O-])ccc1Cl,inactive: -7.89%
21,CN1[C@@H]2CC[C@H]1CC(OC(=O)C(O)(c1ccccc1)c1ccccc1)C2 (stereo not given in full),inactive: -7.6%
22,CC(C)N1C(=O)CC2(CCN(CCOC(=O)C(O)(c3ccccc3)c3ccccc3)CC2)C1=O,inactive: -3.22%
23,COc1cc(SC)ccc1C(=O)NCC1(N(C)C)CCCCC1,inactive: 1.05%
24,CCN(CC)CC(C)C(C)OC(=O)C(O)(c1ccccc1)c1ccccc1 (stereo not given),inactive: -3.61%
25,Cc1ccc(C(=O)NCC2(N3CCCCC3)CCCCC2)cc1,inactive: -7.87%
